Assay results taken from ChEMBL document CHEMBL2150959, “Histamine H3 receptor as a drug discovery target” (J Med Chem, 2011).

The chains behind the UniProt entries cited, without tags or fusion partners. Where a name states a change or a piece, a line headed by the entry shows the natural chain unless it says otherwise.
UniProt Q9QYN8: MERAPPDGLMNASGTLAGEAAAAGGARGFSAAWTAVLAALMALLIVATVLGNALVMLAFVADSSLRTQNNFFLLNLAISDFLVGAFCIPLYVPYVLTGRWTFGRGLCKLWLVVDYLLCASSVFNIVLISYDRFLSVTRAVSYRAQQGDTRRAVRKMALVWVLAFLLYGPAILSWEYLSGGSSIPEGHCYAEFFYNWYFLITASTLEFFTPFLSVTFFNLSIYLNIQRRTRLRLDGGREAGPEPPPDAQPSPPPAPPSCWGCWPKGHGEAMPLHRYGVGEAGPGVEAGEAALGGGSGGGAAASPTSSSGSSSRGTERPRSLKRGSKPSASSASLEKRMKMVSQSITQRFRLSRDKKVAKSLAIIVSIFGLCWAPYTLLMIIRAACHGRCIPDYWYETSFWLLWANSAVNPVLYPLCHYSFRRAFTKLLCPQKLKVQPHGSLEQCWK
UniProt Q9Y5N1: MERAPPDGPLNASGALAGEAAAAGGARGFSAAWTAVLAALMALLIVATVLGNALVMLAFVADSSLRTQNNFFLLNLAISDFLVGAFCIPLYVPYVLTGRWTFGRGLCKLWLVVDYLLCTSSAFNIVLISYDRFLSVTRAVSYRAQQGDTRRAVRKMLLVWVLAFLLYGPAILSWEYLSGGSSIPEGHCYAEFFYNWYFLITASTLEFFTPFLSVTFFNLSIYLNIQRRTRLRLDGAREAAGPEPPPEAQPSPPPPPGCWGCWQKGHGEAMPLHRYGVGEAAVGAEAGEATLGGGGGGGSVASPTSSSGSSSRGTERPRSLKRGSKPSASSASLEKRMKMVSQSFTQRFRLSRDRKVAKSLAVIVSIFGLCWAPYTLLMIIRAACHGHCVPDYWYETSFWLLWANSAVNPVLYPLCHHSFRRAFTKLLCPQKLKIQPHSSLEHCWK

Assays:
Histamine H3 receptor [1] = target: Histamine H3 receptor (Rattus norvegicus, UniProt Q9QYN8); test: Binding affinity to rat cortical histamine H3 receptor
Histamine H3 receptor [2] = target: Histamine H3 receptor (Homo sapiens, UniProt Q9Y5N1); test: Binding affinity to human histamine H3 receptor

pKi (Histamine H3 receptor [1]) | pKi (Histamine H3 receptor [2]) | SMILES
9.40 |  | C[C@H]1CC[C@H](C)N1CCCOc1ccc(-c2ccc(C(=O)N3CCOCC3)cc2)cc1 (single isomer, unassigned) [A-349,821]
 | 7.00 | C[C@@H](NC(=O)c1ccco1)C(=O)N1CCN(CCCOc2ccc(C(=O)C3CC3)cc2)CC1

pKi: −log10 of the molar value.
